# Assay results from US20250129135A1, “Multi-Agonist and Use Thereof” (priority 2021, published 2025).
# Sequences of proteins named here, by UniProt entry; tags and fusion partners are left off. Residues count along the entry.
# UniProt P43220, 24-463: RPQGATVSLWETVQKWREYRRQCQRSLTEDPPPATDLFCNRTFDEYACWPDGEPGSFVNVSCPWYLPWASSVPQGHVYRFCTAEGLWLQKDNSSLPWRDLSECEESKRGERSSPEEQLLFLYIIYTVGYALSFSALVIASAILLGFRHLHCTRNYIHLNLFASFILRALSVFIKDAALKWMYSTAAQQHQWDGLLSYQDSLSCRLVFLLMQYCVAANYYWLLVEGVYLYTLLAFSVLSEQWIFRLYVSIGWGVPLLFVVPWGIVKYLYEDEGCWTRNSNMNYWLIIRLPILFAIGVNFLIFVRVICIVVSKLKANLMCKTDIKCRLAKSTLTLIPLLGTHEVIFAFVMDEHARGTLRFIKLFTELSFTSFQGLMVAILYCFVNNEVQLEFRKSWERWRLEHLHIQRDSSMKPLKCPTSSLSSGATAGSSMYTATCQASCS
# UniProt P47871, 26-477: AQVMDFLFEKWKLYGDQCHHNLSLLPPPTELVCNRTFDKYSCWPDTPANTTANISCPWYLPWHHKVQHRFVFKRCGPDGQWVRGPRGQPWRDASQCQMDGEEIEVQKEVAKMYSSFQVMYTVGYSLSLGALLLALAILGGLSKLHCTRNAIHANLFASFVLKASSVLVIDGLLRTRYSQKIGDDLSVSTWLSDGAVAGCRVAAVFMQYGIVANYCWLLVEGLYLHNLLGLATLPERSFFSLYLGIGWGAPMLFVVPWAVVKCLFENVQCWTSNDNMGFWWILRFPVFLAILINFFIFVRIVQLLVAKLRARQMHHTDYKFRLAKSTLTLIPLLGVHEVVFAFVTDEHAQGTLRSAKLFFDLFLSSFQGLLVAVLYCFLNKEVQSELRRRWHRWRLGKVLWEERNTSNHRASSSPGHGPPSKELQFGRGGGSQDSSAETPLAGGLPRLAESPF
# Assays:
# [1] = tested on: RIN-m5F cells; format: cell-based, rat; conditions: for EC50: cAMP, at least 3 independent tests, read-out: EC50 on RIN-m5F rat pancreatic islet tumor cells; for Rel. A (Relative Activity) on RIN-m5F: relative to GLP-1(7-37)
# Procedure: This experiment measured the cAMP level produced by the compound on RIN-mF cells.
# Frozen […] cells were placed in a 37° C. constant temperature water bath for rapid thawing and recovery. The cell solution was transferred to 10 ml of HBSS for resuspension, and centrifuged at 1000 rpm for 5 minutes at room temperature.
# (§1) 10 μL cell suspension was added to each well in the 384 well plate. […] Using the ECHO liquid transfer system, 100 nL of the prepared compound solution was added to the corresponding cell suspensions in the 384 well plate, rotated and shaken at 1000 rpm for 1 minute to mix evenly, and then incubated at room temperature for 60 minutes. 10 μL of detection reagent was added to each wells after drug incubation was completed, and incubation was performed for 60 minutes.
# [2] = tested on: human primary liver cells; format: cell-based; conditions: for EC50: cAMP, at least 3 independent tests, read-out: EC50 on human primary liver cells; for Rel. A (Relative Activity) on human primary liver cells: relative to GCG
# Procedure: The cAMP levels produced by compounds on human primary liver cells were determined in this experiment. Human primary liver cells were purchased from Lonza (cell product number HUCPG).
# Frozen human primary liver cells were placed in a 37° C. constant temperature water bath for rapid thawing and recovery. The cell solution was transferred to 10 ml of HBSS for resuspension, and centrifuged at 1000 rpm for 5 minutes at room temperature.
# as §1, with “well” for “wells”
# [3] = molecular target: Human GLP-1R (Homo sapiens, UniProt P43220); assay: cAMP (HTRF) activity in HEK-293 cells stably overexpressing human GLP-1 receptor; format: cell-based; design: expressed in transfected cells; host or cells: HEK-293; conditions: for Human GLP-1R Rel. A (Relative Activity): EC50 of human GLP-1 (7-37) / EC50 of compound
# Procedure: (§2) By measuring the cAMP signal response levels of the aforementioned cells, the agonistic activity of individual compound towards the corresponding receptor was determined. The intracellular cAMP content was measured using reagent kit available from Cisbio Corp. based on HTRF (homogeneous time-resolved fluorescence) technology.
# (§3) The cell fluid was transferred to 10 ml of HBSS for resuspension, and centrifuged at 1000 rpm for 5 minutes at room temperature.
# (§4) 10 μL cell suspension was added to each well in the 384 well plate. […] Using the ECHO liquid transfer system, 100 nL of the prepared compound solution was added to the corresponding cell suspensions in the 384 well plate, rotated and shaken at 1000 rpm for 1 minute to mix evenly, and then incubated at room temperature for 60 minutes. 10 μL of detection reagent was added to each well after drug incubation was completed, and incubation was performed in the kit at room temperature for 60 minutes. […] GraphPad Prism 5 plotting software was used to create compound concentration response curves and EC50 (nM) values was calculated.
# [4] = molecular target: T1, Human GCG R (Homo sapiens, UniProt P47871); assay: cAMP (HTRF) activity in HEK-293 cells stably overexpressing human GCG receptor; format: cell-based; conditions: for Human GCG R Rel. A (Relative Activity): EC50 of human GCG / EC50 of compound
# T1 construct: expressed in transfected cells; host or cells: HEK-293
# Procedure: as §2, §3, §4
# [5] = tested on: 3T3-L1 adipocytes; conditions: for EC50: read-out: EC50 on mouse 3T3-L1 adipocyte, cAMP, at least 3 independent tests; for Rel. A (Relative Activity) on 3T3-L1 adipocyte: relative to GIP
# Procedure: Mouse 3T3-L1 precursor adipocytes can be induced to differentiate into mature adipocytes. […] After the cells became full and contacted with each other, DMEM differentiation medium containing 20% FBS, 0.5 mM IBMX, 0.4 ug/mL dexamethasone, and 5 ug/mL insulin was used to induce differentiation of 3T3-L1 adipocyte. After 5 days of induction and cultivation, DMEM medium containing […], 4 ug/ml insulin, and 10 uM rosiglitazone was used to continue induction and cultivation for 3 days. Then, DMEM medium containing 10% FBS was used to continue cultivation for 2-3 days to induce mature 3T3-L1 adipocytes.
# The cAMP level produced by the compound on 3T3-L1 adipocytes was determined in this experiment. The tested compound solution was diluted step by step according to a concentration gradient of 3 times, to obtain a total of 10 series of concentration solutions. The solutions were added to induced mature 3T3-L1 adipocytes and incubated at room temperature for 60 minutes. 10 μL detection reagent in the kit was added to each well after drug incubation, and incubated at room temperature for another 60 minutes. […] GraphPad Prism 5 plotting software was used to create compound concentration-effect curves and calculation was performed.
# [6] = molecular target: T2, Human GIP R (Homo sapiens, UniProt P48546); assay: cAMP (HTRF) activity in CHO cells stably overexpressing GIP receptor; format: cell-based; conditions: for Human GIP R Rel. A (Relative Activity): EC50 of human GIP / EC50 of compound
# T2 construct: expressed in transfected cells; host or cells: CHO
# T2 sequence (P48546 22-466): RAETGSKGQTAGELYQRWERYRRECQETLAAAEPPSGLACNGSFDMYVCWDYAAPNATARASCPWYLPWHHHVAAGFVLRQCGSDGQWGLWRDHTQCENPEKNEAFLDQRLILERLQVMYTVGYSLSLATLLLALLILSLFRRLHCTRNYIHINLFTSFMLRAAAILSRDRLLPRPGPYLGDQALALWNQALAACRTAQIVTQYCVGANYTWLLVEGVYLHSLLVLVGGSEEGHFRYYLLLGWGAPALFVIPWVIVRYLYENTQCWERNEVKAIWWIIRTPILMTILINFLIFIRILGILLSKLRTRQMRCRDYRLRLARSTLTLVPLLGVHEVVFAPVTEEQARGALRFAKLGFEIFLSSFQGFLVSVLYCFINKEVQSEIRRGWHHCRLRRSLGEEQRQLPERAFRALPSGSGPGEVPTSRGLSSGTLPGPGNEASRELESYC
# Procedure: as §2, §3, §4
smiles,measurement,setting,value
CC[C@H](C)[C@H](NC(=O)[C@H](Cc1ccccc1)NC(=O)[C@H](C)NC(=O)C(C)(C)NC(=O)[C@H](CCC(N)=O)NC(=O)[C@H](C)NC(=O)[C@H](CCCCNC(=O)COCCOCCNC(=O)COCCOCCNC(=O)CC[C@H](NC(=O)CCCCCCCCCCCCCCCCCCC(=O)O)C(=O)O)NC(=O)[C@H](CCCCN)NC(=O)[C@H](CC(=O)O)NC(=O)[C@H](CC(C)C)NC(=O)[C@](C)(CC(C)C)NC(=O)[C@@H](NC(=O)[C@H](CO)NC(=O)[C@H](Cc1ccc(O)cc1)NC(=O)[C@H](CC(=O)O)NC(=O)[C@H](CO)NC(=O)[C@@H](NC(=O)[C@](C)(Cc1ccccc1)NC(=O)[C@@H](NC(=O)CNC(=O)[C@H](CCC(N)=O)NC(=O)C(C)(C)NC(=O)[C@@H](N)Cc1ccc(O)cc1)[C@@H](C)O)[C@@H](C)O)[C@@H](C)CC)C(=O)N[C@@H](CCC(=O)O)C(=O)N[C@@H](Cc1ccc(O)cc1)C(=O)N[C@@H](CC(C)C)C(=O)N[C@@H](CC(C)C)C(=O)N[C@@H](CCC(=O)O)C(=O)N[C@H](C(=O)NCC(=O)N1CCC[C@H]1C(=O)N[C@@H](CO)C(=O)N[C@@H](CO)C(=O)NCC(=O)NC(C)(C)C(=O)N1CCC[C@H]1C(=O)N1CCC[C@H]1C(=O)N1CCC[C@H]1C(=O)N[C@@H](CO)C(N)=O)[C@@H](C)O [Compound 7],EC50,[1],1.34 nM
same,Rel. A (Relative Activity) on RIN-m5F,[1],76.79%
same,EC50,[2],1.95 nM
same,Rel. A (Relative Activity) on human primary liver cells,[2],199.64%
same,EC50,[3],0.01 nM
same,Human GLP-1R Rel. A (Relative Activity),[3],440.00%
same,EC50,[4],0.058 nM
same,Human GCG R Rel. A (Relative Activity),[4],98.28%
same,EC50,[5],4.3 nM
same,Rel. A (Relative Activity) on 3T3-L1 adipocyte,[5],88.44%
same,EC50,[6],0.013 nM
same,Human GIP R Rel. A (Relative Activity),[6],1392.31%
CC[C@H](C)[C@H](NC(=O)[C@H](Cc1ccccc1)NC(=O)[C@H](C)NC(=O)C(C)(C)NC(=O)[C@H](CCC(N)=O)NC(=O)[C@H](C)NC(=O)[C@H](CCCCNC(=O)COCCOCCNC(=O)COCCOCCNC(=O)CC[C@H](NC(=O)CCCCCCCCCCCCCCCCCCC(=O)O)C(=O)O)NC(=O)[C@H](CCCCN)NC(=O)[C@H](CC(=O)O)NC(=O)[C@H](CC(C)C)NC(=O)[C@](C)(CC(C)C)NC(=O)[C@@H](NC(=O)[C@H](CO)NC(=O)[C@H](Cc1ccc(O)cc1)NC(=O)[C@H](CC(=O)O)NC(=O)[C@H](CO)NC(=O)[C@@H](NC(=O)[C@](C)(Cc1ccccc1)NC(=O)[C@@H](NC(=O)CNC(=O)[C@H](CCC(N)=O)NC(=O)C(C)(C)NC(=O)[C@@H](N)Cc1ccc(O)cc1)[C@@H](C)O)[C@@H](C)O)[C@@H](C)CC)C(=O)N[C@@H](CCC(=O)O)C(=O)N[C@@H](Cc1ccc(O)cc1)C(=O)N[C@@H](CC(C)C)C(=O)N[C@@H](CC(C)C)C(=O)N[C@@H](CCC(=O)O)C(=O)N[C@H](C(=O)NCC(=O)N1CCC[C@H]1C(=O)N[C@@H](CO)C(=O)N[C@@H](CO)C(=O)NCC(=O)N[C@@H](CCC(N)=O)C(=O)N1CCC[C@H]1C(=O)N1CCC[C@H]1C(=O)N1CCC[C@H]1C(=O)N[C@@H](CO)C(N)=O)[C@@H](C)O [Compound 8],EC50,[1],0.771 nM
same,Rel. A (Relative Activity) on RIN-m5F,[1],133.85%
same,EC50,[2],0.995 nM
same,Rel. A (Relative Activity) on human primary liver cells,[2],391.06%
same,Human GLP-1R Rel. A (Relative Activity),[3],151.72%
same,EC50,[4],0.071 nM
same,Human GCG R Rel. A (Relative Activity),[4],80.28%
same,EC50,[5],3.66 nM
same,Rel. A (Relative Activity) on 3T3-L1 adipocyte,[5],103.88%
same,Human GIP R Rel. A (Relative Activity),[6],1508.33%
CC[C@H](C)[C@H](NC(=O)[C@H](Cc1ccccc1)NC(=O)[C@H](C)NC(=O)C(C)(C)NC(=O)[C@H](CCC(N)=O)NC(=O)[C@H](C)NC(=O)[C@H](CCCCNC(=O)COCCOCCNC(=O)COCCOCCNC(=O)CC[C@H](NC(=O)CCCCCCCCCCCCCCCCCCC(=O)O)C(=O)O)NC(=O)[C@H](CCCCN)NC(=O)[C@H](CC(=O)O)NC(=O)[C@H](CC(C)C)NC(=O)[C@H](Cc1ccccc1)NC(=O)[C@@H](NC(=O)[C@H](CO)NC(=O)[C@H](Cc1ccc(O)cc1)NC(=O)[C@H](CC(=O)O)NC(=O)[C@H](CO)NC(=O)[C@@H](NC(=O)[C@](C)(Cc1ccccc1)NC(=O)[C@@H](NC(=O)CNC(=O)[C@H](CCC(N)=O)NC(=O)C(C)(C)NC(=O)[C@@H](N)Cc1ccc(O)cc1)[C@@H](C)O)[C@@H](C)O)[C@@H](C)CC)C(=O)N[C@@H](CCC(=O)O)C(=O)N[C@@H](Cc1ccc(O)cc1)C(=O)N[C@@H](CC(C)C)C(=O)N[C@@H](CC(C)C)C(=O)N[C@@H](CCC(=O)O)C(=O)N[C@H](C(=O)NCC(=O)N1CCC[C@H]1C(=O)N[C@@H](CO)C(=O)N[C@@H](CO)C(=O)NCC(=O)N[C@@H](C)C(=O)N1CCC[C@H]1C(=O)N1CCC[C@H]1C(=O)N1CCC[C@H]1C(=O)N[C@@H](CO)C(N)=O)[C@@H](C)O [Compound 13],EC50,[1],0.164 nM
same,Rel. A (Relative Activity) on RIN-m5F,[1],629.27%
same,EC50,[2],4.5 nM
same,Rel. A (Relative Activity) on human primary liver cells,[2],86.45%
same,EC50,[3],0.012 nM
same,Human GLP-1R Rel. A (Relative Activity),[3],366.67%
same,Human GCG R Rel. A (Relative Activity),[4],109.62%
same,EC50,[5],10.9 nM
same,Rel. A (Relative Activity) on 3T3-L1 adipocyte,[5],34.84%
same,Human GIP R Rel. A (Relative Activity),[6],565.63%
